We go through 30 molecules from patent publication US20250195530A1, “POLQ INHIBITORS” (ASTRAZENECA AB, priority 2022, published 2025).

Protein sequences, listed by entry. Tags and fused reporters are not part of them. Residues count along the entry.
UniProt O75417, 1780-2590: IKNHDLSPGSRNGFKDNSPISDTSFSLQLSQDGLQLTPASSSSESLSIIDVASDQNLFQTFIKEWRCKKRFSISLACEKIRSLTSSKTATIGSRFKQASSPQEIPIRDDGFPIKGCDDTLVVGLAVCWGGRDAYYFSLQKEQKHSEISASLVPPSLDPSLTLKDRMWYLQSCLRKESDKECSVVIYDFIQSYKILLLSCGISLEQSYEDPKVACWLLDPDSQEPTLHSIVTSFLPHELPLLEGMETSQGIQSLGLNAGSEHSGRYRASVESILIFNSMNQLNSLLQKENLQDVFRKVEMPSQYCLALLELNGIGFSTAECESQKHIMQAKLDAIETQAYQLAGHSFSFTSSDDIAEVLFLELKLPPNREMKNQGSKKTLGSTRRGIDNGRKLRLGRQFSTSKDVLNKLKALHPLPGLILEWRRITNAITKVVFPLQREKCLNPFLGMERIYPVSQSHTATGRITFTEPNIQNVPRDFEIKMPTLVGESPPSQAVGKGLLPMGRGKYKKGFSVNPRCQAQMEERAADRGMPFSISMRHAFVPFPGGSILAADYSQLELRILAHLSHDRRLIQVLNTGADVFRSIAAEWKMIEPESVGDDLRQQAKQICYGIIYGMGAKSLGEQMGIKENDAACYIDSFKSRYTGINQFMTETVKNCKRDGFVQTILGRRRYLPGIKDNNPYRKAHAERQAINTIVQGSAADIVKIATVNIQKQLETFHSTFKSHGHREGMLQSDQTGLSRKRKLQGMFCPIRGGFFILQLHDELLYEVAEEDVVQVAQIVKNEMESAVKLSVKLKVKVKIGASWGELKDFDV

Read-outs that look alike come from different tables or passages of the source.

Test [1] deals with T1, isolated polymerase domain (I1780-V2590) of DNA polymerase theta (Polθ) (Homo sapiens (Human), UniProt O75417).
Test [2] concerns the target T1, isolated polymerase domain (I1780-V2590) of DNA polymerase theta (Polθ). Briefly: biochemical.

For `CC(C)Oc1ccc2c(c1)nc(-c1ccc(OC3CCCN(C)CC3)cc1Cl)n2Cc1ccccc1` (single isomer, unassigned) [Example A11, 1-benzyl-2-(2-chloro-4-((1-methylazepan-4-yl)oxy)phenyl)-5-isopropoxy-1H-benzo[d]imidazole], in test [1], the 50% inhibitory concentration (IC50) was 2 nM. This lies in the single-digit nanomolar range. On the same count and under the same terms, to `CC(CCOc1ccc(-c2nc3c(OC4(C)CC4)ncnc3n2Cc2cccc(Cl)c2F)c(Cl)c1)C(=O)O` (single isomer, unassigned) [Example T271, 4-(3-chloro-4-(9-(3-chloro-2-fluorobenzyl)-6-(1-methylcyclopropoxy)-9H-purin-8-yl)phenoxy)-2-methylbutanoic acid] belongs 6.31 nM. Molecule `CC(CCOc1ccc(-c2nc3c(OC4(C)CC4)ncnc3n2Cc2ccccc2C2CC2)c(Cl)c1)C(=O)O` (single isomer, unassigned) [Example T600, 4-(3-chloro-4-(9-(2-cyclopropylbenzyl)-6-(1-methylcyclopropoxy)-9H-purin-8-yl)phenoxy)-2-methylbutanoic acid] gave an IC50 in test [1] of 6.31 nM. That is a single-digit nanomolar value.

`CC(COc1cccc(-c2nc3c(OC4(C)CC4)ncnc3n2Cc2cc(Cl)ccc2F)c1Cl)CC(=O)O` (single isomer, unassigned) [Example U34, 4-(2-chloro-3-(9-(5-chloro-2-fluorobenzyl)-6-(1-methylcyclopropoxy)-9H-purin-8-yl)phenoxy)-3-methylbutanoic acid] showed an IC50 in test [1] of 7.94 nM. The IC50 values of the last two molecules are within 1.5-fold of each other.

In test [1], `COc1ccc(F)cc1Cn1c(-c2cccc(OCC(C)CC(=O)O)c2Cl)nc2c(OC3(C)CC3)ncnc21` (single isomer, unassigned) [Example U80, 4-(2-chloro-3-(9-(5-fluoro-2-methoxybenzyl)-6-(1-methylcyclopropoxy)-9H-purin-8-yl)phenoxy)-3-methylbutanoic acid] showed a half-maximal inhibitory concentration (IC50) of 3.16 nM. Consider `Cc1cc(OCCN2CCN(C)CC2)ccc1-c1nc2c(OC(C)C)ncnc2n1Cc1ccccc1` [Example 1, 9-Benzyl-6-isopropoxy-8-(2-methyl-4-(2-(4-methylpiperazin-1-yl)ethoxy)phenyl)-9H-purine], for which 2.51 nM corresponded to half-maximal inhibition in test [1] (IC50). The IC50 values of the last two molecules are within 1.5-fold of each other.

The molecule `CC(C)Oc1ccc2c(c1)nc(-c1ccc(OCCN3CCN(C)CC3)cc1Cl)n2Cc1cccc(Cl)c1` [Example 2, 2-(2-Chloro-4-(2-(4-methylpiperazin-1-yl)ethoxy)phenyl)-1-(3-chlorobenzyl)-5-isopropoxy-1H-benzo[d]imidazole] gave an IC50 in test [1] of 2 nM. Same read-out and setting: to `CC(C)Oc1ccc2c(c1)nc(-c1ccc(OCCCN)cc1Cl)n2Cc1ccccc1` [Example 3, 3-(4-(1-Benzyl-5-isopropoxy-1H-benzo[d]imidazol-2-yl)-3-chlorophenoxy)propan-1-amine] belongs 2 nM. Same read-out and setting: to `CN1CCN(CCOc2ccc(-c3nc4c(OC5(C)CC5)ncnc4n3Cc3ccccc3)c(Cl)c2)CC1` [Example 4, 9-Benzyl-8-(2-chloro-4-(2-(4-methylpiperazin-1-yl)ethoxy)phenyl)-6-(1-methylcyclopropoxy)-9H-purine] belongs 3.16 nM. On to `CC1(Oc2ncnc3c2nc(-c2ccc(F)c(OCCC(=O)O)c2Cl)n3Cc2cccc(Cl)c2)CC1` [Example U65, 3-(2-chloro-3-(9-(3-chlorobenzyl)-6-(1-methylcyclopropoxy)-9H-purin-8-yl)-6-fluorophenoxy)propanoic acid], for which half-maximal inhibition in test [2] (IC50) required 2.51 nM. Same read-out and setting: the value for `CC1(Oc2ncnc3c2nc(-c2c(F)ccc(OCCC(=O)O)c2Cl)n3Cc2cccc(Cl)c2)CC1` [Example U66, 3-(2-chloro-3-(9-(3-chlorobenzyl)-6-(1-methylcyclopropoxy)-9H-purin-8-yl)-4-fluorophenoxy)propanoic acid] was less than 2 nM. With `COc1ccc(F)cc1Cn1c(-c2ccc(OCC[C@@H](C)C(=O)O)cc2Cl)nc2c(OC3(C)CC3)ncnc21` [Example U67, (R)-4-(3-chloro-4-(9-(5-fluoro-2-methoxybenzyl)-6-(1-methylcyclopropoxy)-9H-purin-8-yl)phenoxy)-2-methylbutanoic acid], the IC50 in test [2] is 2 nM. The same measure, in the same setting: to `COc1ccc(F)cc1Cn1c(-c2ccc(OCC[C@H](C)C(=O)O)cc2Cl)nc2c(OC3(C)CC3)ncnc21` [Example U68, (S)-4-(3-chloro-4-(9-(5-fluoro-2-methoxybenzyl)-6-(1-methylcyclopropoxy)-9H-purin-8-yl)phenoxy)-2-methylbutanoic acid] belongs 2.51 nM. The molecule `COc1ccc(Cl)cc1Cn1c(-c2cccc(OCC[C@H](C)C(=O)O)c2Cl)nc2c(OC3(C)CC3)ncnc21` [Example U73, (S)-4-(2-chloro-3-(9-(5-chloro-2-methoxybenzyl)-6-(1-methylcyclopropoxy)-9H-purin-8-yl)phenoxy)-2-methylbutanoic acid] gave an IC50 in test [2] of 3.16 nM.

The molecule `COc1ccc(Cl)cc1Cn1c(-c2cccc(OCC[C@@H](C)C(=O)O)c2Cl)nc2c(OC3(C)CC3)ncnc21` [Example U75, (R)-4-(2-chloro-3-(9-(5-chloro-2-methoxybenzyl)-6-(1-methylcyclopropoxy)-9H-purin-8-yl)phenoxy)-2-methylbutanoic acid] had an IC50 in test [2] of 3.16 nM. Molecule `COc1ccc(C(F)(F)F)cc1Cn1c(-c2ccc(OCC[C@H](C)C(=O)O)cc2Cl)nc2c(OC3(C)CC3)ncnc21` [Example U76, (S)-4-(3-chloro-4-(9-(2-methoxy-5-(trifluoromethyl)benzyl)-6-(1-methylcyclopropoxy)-9H-purin-8-yl)phenoxy)-2-methylbutanoic acid] showed a half-inhibitory concentration (IC50) in test [2] of 3.98 nM. The IC50 values of the last two molecules are within 1.5-fold of each other.

`COc1ccc(F)cc1Cn1c(-c2cccc(OCC[C@@H](C)C(=O)O)c2Cl)nc2c(OC3(C)CC3)ncnc21` [Example U78, (R)-4-(2-chloro-3-(9-(5-fluoro-2-methoxybenzyl)-6-(1-methylcyclopropoxy)-9H-purin-8-yl)phenoxy)-2-methylbutanoic acid] showed an IC50 in test [2] of 2 nM. Still for that read-out and setting: to `COc1ccc(C(F)(F)F)cc1Cn1c(-c2ccc(OCC[C@@H](C)C(=O)O)cc2Cl)nc2c(OC3(C)CC3)ncnc21` [Example U79, (R)-4-(3-chloro-4-(9-(2-methoxy-5-(trifluoromethyl)benzyl)-6-(1-methylcyclopropoxy)-9H-purin-8-yl)phenoxy)-2-methylbutanoic acid] belongs 3.98 nM; to `C[C@H](CCOc1ccc(-c2nc3c(OC4(C)CC4)ncnc3n2Cc2cc(Cl)ccc2C#N)c(Cl)c1)C(=O)O` [Example U81, (R)-4-(3-chloro-4-(9-(5-chloro-2-cyanobenzyl)-6-(1-methylcyclopropoxy)-9H-purin-8-yl)phenoxy)-2-methylbutanoic acid], 3.98 nM; to `C[C@@H](CCOc1ccc(-c2nc3c(OC4(C)CC4)ncnc3n2Cc2cc(Cl)ccc2C#N)c(Cl)c1)C(=O)O` [Example U82, (S)-4-(3-chloro-4-(9-(5-chloro-2-cyanobenzyl)-6-(1-methylcyclopropoxy)-9H-purin-8-yl)phenoxy)-2-methylbutanoic acid], 2.51 nM. On the same count and under the same terms, the value for `COc1ccc(F)cc1Cn1c(-c2cccc(OCCC(=O)O)c2Cl)nc2c(OC3(C)CC3)ncnc21` [Example U83, 3-(2-chloro-3-(9-(5-fluoro-2-methoxybenzyl)-6-(1-methylcyclopropoxy)-9H-purin-8-yl)phenoxy)propanoic acid] was 3.98 nM; that for `C[C@@H](CCOc1ccc(-c2nc3c(OC4(C)CC4)ncnc3n2Cc2cccc(Cl)c2)c(Cl)c1)C(=O)NCC(=O)O` [Example U86, (S)-(4-(3-chloro-4-(9-(3-chlorobenzyl)-6-(1-methylcyclopropoxy)-9H-purin-8-yl)phenoxy)-2-methylbutanoyl)glycine] was 3.16 nM; that for `C[C@@H](CCOc1cccc(-c2nc3c(OC4(C)CC4)ncnc3n2Cc2cc(Cl)ccc2C#N)c1Cl)C(=O)O` [Example U87, (S)-4-(2-chloro-3-(9-(5-chloro-2-cyanobenzyl)-6-(1-methylcyclopropoxy)-9H-purin-8-yl)phenoxy)-2-methylbutanoic acid] was 3.98 nM. Same read-out and setting: the value for `COc1ccc(C)cc1Cn1c(-c2cccc(OCCC(=O)O)c2Cl)nc2c(OC3(C)CC3)ncnc21` [Example U89, 3-(2-chloro-3-(9-(2-methoxy-5-methylbenzyl)-6-(1-methylcyclopropoxy)-9H-purin-8-yl)phenoxy)propanoic acid] was 5.01 nM; that for `COc1ccc(Cl)cc1Cn1c(-c2cccc(OCCCOC(C)(C)C(=O)O)c2Cl)nc2c(OC3(C)CC3)ncnc21` [Example U90, 2-(3-(2-chloro-3-(9-(5-chloro-2-methoxybenzyl)-6-(1-methylcyclopropoxy)-9H-purin-8-yl)phenoxy)propoxy)-2-methylpropanoic acid] was 5.01 nM; that for `COc1ccc(Cl)cc1Cn1c(-c2ccc(OCCCOC(C)(C)C(=O)O)cc2Cl)nc2c(OC3(C)CC3)ncnc21` [Example U92, 2-(3-(3-chloro-4-(9-(5-chloro-2-methoxybenzyl)-6-(1-methylcyclopropoxy)-9H-purin-8-yl)phenoxy)propoxy)-2-methylpropanoic acid] was 5.01 nM.

With `COc1ccc(C)cc1Cn1c(-c2cccc(OCCCOCC(=O)O)c2Cl)nc2c(OC3(C)CC3)ncnc21` [Example U93, 2-(3-(2-chloro-3-(9-(2-methoxy-5-methylbenzyl)-6-(1-methylcyclopropoxy)-9H-purin-8-yl)phenoxy)propoxy)acetic acid], it took 6.31 nM to reach half-maximal inhibition in test [2] (IC50). For the molecule `COc1ccc(C)cc1Cn1c(-c2ccc(OCC[C@H](C)C(=O)O)cc2Cl)nc2c(OC3(C)CC3)ncnc21` [Example U94, (S)-4-(3-chloro-4-(9-(2-methoxy-5-methylbenzyl)-6-(1-methylcyclopropoxy)-9H-purin-8-yl)phenoxy)-2-methylbutanoic acid], in test [2], half-maximal inhibition (IC50) was put at 5.01 nM. This IC50 and that of the molecule before are within 1.5-fold of each other.

`C[C@H](CCOc1cccc(-c2nc3c(OC4(C)CC4)ncnc3n2Cc2cc(Cl)ccc2C#N)c1Cl)C(=O)O` [Example U95, (R)-4-(2-chloro-3-(9-(5-chloro-2-cyanobenzyl)-6-(1-methylcyclopropoxy)-9H-purin-8-yl)phenoxy)-2-methylbutanoic acid] showed a concentration for half-maximal inhibition (IC50) in test [2] of 3.98 nM.

In the case of `CC1(Oc2ncnc3c2nc(-c2cccc(OCCC(=O)O)c2Cl)n3Cc2cc(Cl)ccc2C#N)CC1` [Example U96, 3-(2-chloro-3-(9-(5-chloro-2-cyanobenzyl)-6-(1-methylcyclopropoxy)-9H-purin-8-yl)phenoxy)propanoic acid], the concentration for half-maximal inhibition (IC50) in test [2] is 3.98 nM.

In general, IC50 refers to the point on the concentration scale where inhibition reaches its midpoint. A low value points to higher potency.
